From ChEMBL document CHEMBL1148346, “Tiplaxtinin, a novel, orally efficacious inhibitor of plasminogen activator inhibitor-1: design, synthesis, and preclinical characterization” (J Med Chem, 2004)
pKd: −log10 of the molar value.

Biological target: Plasminogen activator inhibitor 1 (Homo sapiens, UniProt P05121)
Experiment: Binding affinity of compound towards latent Plasminogen activator inhibitor-1 expressed as apparent Kd

O=C(O)C(=O)c1cn(Cc2ccccc2)c2ccc(-c3ccc(OC(F)(F)F)cc3)cc12 [TIPLASININ]
pKd: 5.30
